# Antibody variant affinities, Ab-91 heavy chain, assay 2

Antigen: PDVDLGDISGINAS, a 14-residue peptide of the SARS-CoV-2 spike HR2 region.

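The starting antibody came from a phage panning campaign against this peptide. In library AAYL51, one, two or three CDR residues were substituted; doubles and triples were drawn at random. Affinity was read by AlphaSeq, a pooled yeast mating assay with surface-displayed partners. Mating (16 h, 30 °C) was followed by selection of diploids and sequencing of their barcodes. Scores were corrected for input abundance and mapped to Kd with protein pairs of known affinity run in the same pool. Mating was done three times.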

Ab-91 is the parent antibody, in scFv form: VL, then three GGGGS repeats, then VH. The light chain is unchanged in all variants.
VL: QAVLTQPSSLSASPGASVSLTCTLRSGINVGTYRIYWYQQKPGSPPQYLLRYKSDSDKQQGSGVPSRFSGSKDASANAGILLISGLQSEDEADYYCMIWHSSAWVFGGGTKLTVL
VH: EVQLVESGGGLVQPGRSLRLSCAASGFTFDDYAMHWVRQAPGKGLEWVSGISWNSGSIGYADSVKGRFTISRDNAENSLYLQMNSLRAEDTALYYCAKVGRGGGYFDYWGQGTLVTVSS

Variants are written as CDR1, CDR2 and CDR3 of the heavy chain (limits as in the source). Parent: GFTFDDYAMH, GISWNSGSIGYADSVK, VGRGGGYFDY. Affinities are written as log10 Kd with Kd in nM; a lower number is a better binder. "nd" marks a missing value. The strain was present, yet no cells mated with the target were sequenced in that replicate, which points to weak or no binding.

{"CDR-H1": "GFTFDDYAMV", "CDR-H2": "GMSWNSGSIGYADSVK", "CDR-H3": "LGRGGGYFDY", "log10 Kd (nM) by replicate": "nd nd nd", "control signals": "0/9"}
{"CDR-H1": "GVTFDDYAMH", "CDR-H2": "GISWNNGSIGYADSPK", "CDR-H3": "VGRGGGYFDY", "log10 Kd (nM) by replicate": "5.02 nd 4.71", "control signals": "3/9 (4.83)"}
{"CDR-H1": "GFTFDDYAMH", "CDR-H2": "GISWNSGSIGYAVSVK", "CDR-H3": "VGRFGGYFDS", "log10 Kd (nM) by replicate": "4.69 nd nd", "control signals": "4/9 (4.54)"}
{"CDR-H1": "PFTFDDYAMH", "CDR-H2": "GISWNSGSIGYADSVW", "CDR-H3": "VVRGGGYFDY", "log10 Kd (nM) by replicate": "4.37 4.29 nd", "control signals": "4/9 (4.53)"}
{"CDR-H1": "GPTFDDYAMH", "CDR-H2": "GISWNSGSIGYADSVA", "CDR-H3": "VGRGGGDFDY", "log10 Kd (nM) by replicate": "nd nd nd", "control signals": "0/9"}
{"CDR-H1": "GFTFDDYEMH", "CDR-H2": "GISNNSGSIGYADSPK", "CDR-H3": "VGRGGGYFDY", "log10 Kd (nM) by replicate": "5.06 nd nd", "control signals": "2/9 (4.76)"}
{"CDR-H1": "GFTFDDYAMH", "CDR-H2": "GIDWNSGSIGYADSVK", "CDR-H3": "VIRGGGYYDY", "log10 Kd (nM) by replicate": "3.92 4.58 nd", "control signals": "1/9 (3.79)"}
{"CDR-H1": "SFTFDDYAMH", "CDR-H2": "GISWNSLSIGYADSVK", "CDR-H3": "VGRGGGMFDY", "log10 Kd (nM) by replicate": "3.99 nd nd", "control signals": "2/9 (4.36)"}
{"CDR-H1": "GFTFRDYAMH", "CDR-H2": "GISWNSGSIGYADSVK", "CDR-H3": "VQRGGGYFAY", "log10 Kd (nM) by replicate": "1.01 1.57 0.40", "control signals": "0/9"}
{"CDR-H1": "GFTFDDRAMH", "CDR-H2": "GISWNSGSIGYADSVK", "CDR-H3": "VGWGFGYFDY", "log10 Kd (nM) by replicate": "nd 3.39 nd", "control signals": "0/9"}
{"CDR-H1": "GFTFDDYAMH", "CDR-H2": "GISWNSGSIGYADSVK", "CDR-H3": "VGRGCGWGDY", "log10 Kd (nM) by replicate": "nd nd nd", "control signals": "1/9 (4.51)"}
{"CDR-H1": "GFTFDNYAMH", "CDR-H2": "GISWNFGSIGYNDSVK", "CDR-H3": "VGRGGGYFDY", "log10 Kd (nM) by replicate": "5.07 4.81 nd", "control signals": "5/9 (4.80)"}
{"CDR-H1": "GFTFDDYAMH", "CDR-H2": "GISLNSGRIGYADSVK", "CDR-H3": "VGRGGGGFDY", "log10 Kd (nM) by replicate": "nd 3.91 4.27", "control signals": "6/9 (4.34)"}
{"CDR-H1": "GFTFDDYAMH", "CDR-H2": "GISWLSGIIGYATSVK", "CDR-H3": "VGRGGGYFDY", "log10 Kd (nM) by replicate": "6.01 nd 4.98", "control signals": "3/9 (4.04)"}
{"CDR-H1": "GFTFDDFAMH", "CDR-H2": "GISWNSGSIFYAISVK", "CDR-H3": "VGRGGGYFDY", "log10 Kd (nM) by replicate": "nd nd 5.35", "control signals": "4/9 (4.17)"}
{"CDR-H1": "GFTTDDYALH", "CDR-H2": "GISWNSMSIGYADSVK", "CDR-H3": "VGRGGGYFDY", "log10 Kd (nM) by replicate": "nd nd nd", "control signals": "0/9"}
{"CDR-H1": "GEEFDDYAMH", "CDR-H2": "GESWNSGSIGYADSVK", "CDR-H3": "VGRGGGYFDY", "log10 Kd (nM) by replicate": "nd nd nd", "control signals": "1/9 (4.77)"}
{"CDR-H1": "GFTPDDYAMH", "CDR-H2": "GISWNSGSIGYADSVW", "CDR-H3": "VGRGGMYFDY", "log10 Kd (nM) by replicate": "nd nd nd", "control signals": "0/9"}
{"CDR-H1": "GFTFDDYAMH", "CDR-H2": "GISWNSGWEFYADSVK", "CDR-H3": "VGRGGGYFDY", "log10 Kd (nM) by replicate": "5.48 nd nd", "control signals": "4/9 (5.49)"}
{"CDR-H1": "GFTFDDYAWH", "CDR-H2": "MISWNSGSIAYADSVK", "CDR-H3": "VGRGGGYFDY", "log10 Kd (nM) by replicate": "nd nd nd", "control signals": "0/9"}

In this assay the parent's reference entry averaged 1.86; its copy inside this library read 0.88. Nonspecific signal, from three strains lacking the peptide, appeared in 21% of pairings of library AAYL51, centred on 4.54 (5% of these signals below 3.26); values are not corrected for it. For each scFv, signals with the empty controls are counted beside the result, with their mean in brackets.

From the AlphaSeq antibody data of Engelhart et al. 2022 (doi:10.1038/s41597-022-01779-4), copy in the FLAb collection.